{"source": "patent US5972636A", "about": "(priority 1997, dated 1999)", "key": {"[1]": {"system": "new protease (multipain) from skeletal muscle", "conditions": "Table III; None = 100; 2 mM of the nucleotides or 10 mM PPi; 37° C. 1 hour"}, "[2]": {"system": "1500 kDa complex (proteasome-multipain)", "assay": "Degradation of Ub-125I-lysozyme by the 1500 kDa proteasome-multipain complex", "conditions": "Table VIII; None = 100; 2 mM of the nucleotide or 10 mM PPi"}}}
{"substance": "PPi", "values": [{"measurement": "Relative activity (%), degradation of Ub-125I-lysozyme by the new activity", "setting": "[1]", "value": 118, "unit": "%"}, {"measurement": "Realtive Activity (%) Complex, Ub-lysozyme degradation", "setting": "[2]", "value": 113, "unit": "%"}]}
